# Data published in publication PMC10465125 (eLife, 2023).
# Tests used:
# 293T-ACE2 cells = test: Cytotoxicity assay (MTT), 293T-ACE2; assay type: cell-based, human; settings: 24 hr, tested concentrations given in μg/ml
# Method: (§1) The human embryonic kidney cells 293T stably expressing recombinant human ACE2 (293T-ACE2) were maintained in DMEM containing 10% FBS, 1% P/S, and […] hygromycin. The NCI-H460 cell line (human non-small cell lung cancer cells) was preserved in Modified Eagle’s Medium (MEM, Gibco, USA) supplemented with 10% FBS and 1% P/S. The VeroE6 cell line (African green monkey kidney cells) was grown in Dulbecco’s Modified Eagle’s Medium (DMEM, Gibco) supplemented with 10% fetal bovine serum (FBS, Gibco), 1× GlutaMAX (Gibco), and 1% penicillin/streptomycin (P/S, Hyclone, USA). All these cells were cultured at 37°C and 5% CO2. All cell lines are checked annually for mycoplasma contamination, and human cell lines were authenticated through STR profiling.
# (§2) […]. The medium was removed, and viable cells were detected with MTT assay (Cyrusbioscience, Taiwan), which was read by absorbance at 570 nm by an ELISA reader. All experiments were performed independently in triplicates and repeated three times.
# NCI-H460 cells = test: Cytotoxicity assay (MTT), NCI-H460; assay type: cell-based, human; settings: 24 hr, tested concentrations given in μg/ml
# Method: as §1, §2
# VeroE6 cells = test: Cytotoxicity assay (MTT), VeroE6; assay type: cell-based, African green monkey; settings: tested concentrations given in μg/ml
# Method: as §1, §2
substance,measurement,setting,value
tannic acid [reference compound],CC50 (median cytotoxic concentration),293T-ACE2 cells,143.9±11.58
same,CC50 (median cytotoxic concentration),NCI-H460 cells,71.57±4.98
same,CC50 (median cytotoxic concentration),VeroE6 cells,128.70±11.22
